From patent US20240360179A1, “STAPLED PEPTIDES AND METHODS THEREOF” (FOG PHARMACEUTICALS, INC., priority 2021, published 2024)

Chains of the proteins cited; added tags and fusions are not shown.
UniProt P35222, whole entry: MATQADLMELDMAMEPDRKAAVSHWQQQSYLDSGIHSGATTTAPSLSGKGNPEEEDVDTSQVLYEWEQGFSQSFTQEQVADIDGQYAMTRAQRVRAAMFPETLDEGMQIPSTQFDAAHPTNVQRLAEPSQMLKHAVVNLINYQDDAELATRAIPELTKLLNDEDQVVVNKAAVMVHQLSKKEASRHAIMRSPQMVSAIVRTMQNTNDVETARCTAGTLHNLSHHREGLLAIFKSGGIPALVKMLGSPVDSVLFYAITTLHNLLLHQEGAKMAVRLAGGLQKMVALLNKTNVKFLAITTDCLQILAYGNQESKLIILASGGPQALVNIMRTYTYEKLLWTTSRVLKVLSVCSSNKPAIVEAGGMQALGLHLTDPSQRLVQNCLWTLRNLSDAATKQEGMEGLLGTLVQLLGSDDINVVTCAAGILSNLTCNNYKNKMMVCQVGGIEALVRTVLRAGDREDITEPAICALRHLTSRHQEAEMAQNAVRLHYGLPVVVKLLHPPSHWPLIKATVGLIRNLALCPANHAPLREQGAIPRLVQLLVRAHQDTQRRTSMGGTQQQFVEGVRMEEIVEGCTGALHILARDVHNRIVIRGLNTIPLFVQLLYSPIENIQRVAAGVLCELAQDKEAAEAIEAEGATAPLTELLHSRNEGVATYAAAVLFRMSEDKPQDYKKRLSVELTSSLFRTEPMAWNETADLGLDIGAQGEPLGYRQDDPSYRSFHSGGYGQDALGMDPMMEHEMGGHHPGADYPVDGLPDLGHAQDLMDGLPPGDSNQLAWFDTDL

target: T1, full-length B-Catenin (Uniprot ID P35222) (Homo sapiens, UniProt P35222); type: binding; conditions: competition fluorescence polarization; read-out: beta-Catenin FP IC50
T1 construct: 10 nM full-length B-Catenin (Uniprot ID P35222)

| Substance | IC50 |
| --- | --- |
| Ac-PL3-Asp-Npg-B5-Asp-3COOHF-Ala-Ala-Phe-Lys*3-PyrS2-Phe-BztA-GlnR*3-NH2 [I-1243] | < 50 nM |
| Ac-PL3-Asp-Npg-B5-Asp-3COOHF-Ala-Ala-Phe-Lys*3-SPip2-2F3MeF-BztA-GlnR*3-Ala-NH2 [I-777] | 50 to 200 nM |
| Ac-PL3-Asp-Npg-B5-Asp-3COOHF-Ala-Ala-Phe-Lys*3-SPip2-3Thi-BztA-GlnR*3-Ala-NH2 [I-780] | < 50 nM |
| Ac-PL3-Asp-Npg-B5-Asp-3COOHF-Ala-Ala-Phe-Lys*3-SPip3-2F3MeF-BztA-GlnR*3-Ala-NH2 [I-778] | < 50 nM |
| Ac-PL3-Asp-Npg-B5-Asp-3COOHF-Ala-Ala-Phe-Lys*3-SPip3-2F3MeF-BztA-GlnR*3-Ala-NH2 [I-779] | 50 to 200 nM |
| Ac-PL3-Asp-Npg-B5-Asp-3COOHF-Ala-Ala-Phe-TriAzLys*3-PyrS2-2F3MeF-BztA-sAla*3-NH2 [I-22] | < 50 nM |
| Ac-PL3-Asp-Npg-B5-Asp-3COOHF-Ala-Ala-Phe-TriAzLys*3-PyrS2-3Thi-BztA-sAla*3-NH2 [I-20] | < 50 nM |
| Ac-PL3-Asp-Npg-B5-Asp-3COOHF-Asn-Ala-Phe-Lys*3-PyrS2-3Thi-BztA-GlnR*3-Ala-NH2 [I-394] | < 50 nM |
| Ac-PL3-Asp-Npg-B5-Asp-3COOHF-CyLeu-Ser-Phe-Lys*3-PyrS2-3Thi-BztA-GlnR*3-Ala-NH2 [I-1011] | < 50 nM |
| Ac-PL3-Asp-Npg-B5-Asp-3COOHF-Npg-Ala-Phe-Lys*3-PyrS2-2F3MeF-BztA-GlnR*3-Ala-NH2 [I-100] | < 50 nM |
| Ac-PL3-Asp-Npg-B5-Asp-3COOHF-[Ac]PyrRa-Ala-Phe-Lys*3-PyrS2-3Thi-BztA-GlnR*3-Ala-NH2 [I-1034] | < 50 nM |
| Ac-PL3-Asp-Npg-B5-Asp-3COOHF-[Ac]PyrSa-Ala-Phe-Lys*3-PyrS2-3Thi-BztA-GlnR*3-Ala-NH2 [I-1031] | 50 to 200 nM |
| Ac-PL3-Asp-Npg-B5-Asp-3COOHF-[Me2ethylenediamine]GlnR-Ala-Phe-Leu-PyrS2-2F3MeF-BztA-GlnR-NH2 [I-702] | 50 to 200 nM |
| Ac-PL3-Asp-Npg-B5-Asp-3COOHF-[Phc]PyrRa-Ala-Phe-Lys*3-PyrS2-3Thi-BztA-GlnR*3-Ala-NH2 [I-1035] | < 50 nM |
| Ac-PL3-Asp-Npg-B5-Asp-3COOHF-[Phc]PyrSa-Ala-Phe-Lys*3-PyrS2-3Thi-BztA-GlnR*3-Ala-NH2 [I-1032] | 50 to 200 nM |
| Ac-PL3-Asp-Npg-B5-Asp-3COOHF-[diaminopropane]GlnR-Ala-Phe-Leu-PyrS2-2F3MeF-BztA-GlnR-NH2 [I-703] | 50 to 200 nM |
| Ac-PL3-Asp-Npg-B5-Asp-3COOHF-[ethylenediamine]GlnR-Ala-Phe-Leu-PyrS2-2F3MeF-BztA-GlnR-NH2 [I-701] | 50 to 200 nM |
| Ac-PL3-Asp-Npg-B5-Asp-3COOHF-[isovaleryl]Acp-Ala-Phe-Lys*3-PyrS2-3Thi-BztA-GlnR*3-Ala-NH2 [I-1030] | < 50 nM |
| Ac-PL3-Asp-Npg-B5-Asp-3COOHF-[isovaleryl]PyrRa-Ala-Phe-Lys*3-PyrS2-3Thi-BztA-GlnR*3-Ala-NH2 [I-1036] | < 50 nM |
| Ac-PL3-Asp-Npg-B5-Asp-3COOHF-[isovaleryl]PyrSa-Ala-Phe-Lys*3-PyrS2-3Thi-BztA-GlnR*3-Ala-NH2 [I-1033] | 50 to 200 nM |
| Ac-PL3-Asp-Npg-B5-Asp-4BOH2F-Aib-Ala-Phe-Lys*3-PyrS2-3Thi-BztA-GlnR*3-Ala-NH2 [I-1189] | 50 to 200 nM |
| Ac-PL3-Asp-Npg-B5-Asp-Asp-Ala-Ala-Phe-TriAzLys*3-PyrS2-3Thi-BztA-sAla*3-NH2 [I-18] | < 50 nM |

| Substance | IC50 |
| --- | --- |
| Ac-PL3-Asp-Npg-B5-Asp-SbMeAsp-Aib-Ala-Phe-Lys*3-PyrS2-Phe-34ClF-GlnR*3-NH2 [I-1060] | < 50 nM |
| Ac-PL3-Asp-Npg-B5-Asp-TfeGA-Aib-Ala-Phe-Lys*3-PyrS2-2F3MeF-34ClF-GlnR*3-Leu-Ser-NH2 [I-893] | 50 to 200 nM |
| Ac-PL3-Asp-Npg-B5-Asp-TfeGA-Aib-Ala-Phe-Lys*3-PyrS2-2F3MeF-34ClF-GlnR*3-NH2 [I-890] | < 50 nM |
| Ac-PL3-Asp-Npg-B5-Asp-TfeGA-Aib-Ala-Phe-Lys*3-PyrS2-2F3MeF-BztA-GlnR*3-Leu-Ser-NH2 [I-888] | 50 to 200 nM |
| Ac-PL3-Asp-Npg-B5-Asp-TfeGA-Aib-Ala-Phe-Lys*3-PyrS2-2F3MeF-BztA-GlnR*3-NH2 [I-887] | < 50 nM |
| Ac-PL3-Asp-Npg-B5-Asp-TfeGA-Aib-Ala-Phe-Lys*3-PyrS2-3Thi-34ClF-GlnR*3-Ala-NH2 [I-882] | < 50 nM |
| Ac-PL3-Asp-Npg-B5-Asp-TfeGA-Aib-Ala-Phe-Lys*3-PyrS2-3Thi-34ClF-GlnR*3-Leu-Ser-NH2 [I-883] | < 50 nM |
| Ac-PL3-Asp-Npg-B5-Asp-TfeGA-Aib-Ala-Phe-Lys*3-PyrS2-3Thi-34ClF-GlnR*3-NH2 [I-881] | < 50 nM |
| Ac-PL3-Asp-Npg-B5-Asp-TfeGA-Aib-Ala-Phe-Lys*3-PyrS2-3Thi-BztA-GlnR*3-Ala-NH2 [I-876] | < 50 nM |
| Ac-PL3-Asp-Npg-B5-Asp-TfeGA-Aib-Ala-Phe-Lys*3-PyrS2-3Thi-BztA-GlnR*3-Leu-Ser-NH2 [I-877] | < 50 nM |
| Ac-PL3-Asp-Npg-B5-Asp-TfeGA-Aib-Ala-Phe-Lys*3-PyrS2-3Thi-BztA-GlnR*3-NH2 [I-875] | < 50 nM |
| Ac-PL3-Asp-Npg-B5-Asp-TfeGA-Aib-Ala-Phe-Lys*3-PyrS2-Phe-34ClF-GlnR*3-Ala-NH2 [I-885] | < 50 nM |
| Ac-PL3-Asp-Npg-B5-Asp-TfeGA-Aib-Ala-Phe-Lys*3-PyrS2-Phe-34ClF-GlnR*3-Leu-Ser-NH2 [I-886] | < 50 nM |
| Ac-PL3-Asp-Npg-B5-Asp-TfeGA-Aib-Ala-Phe-Lys*3-PyrS2-Phe-34ClF-GlnR*3-NH2 [I-884] | < 50 nM |
| Ac-PL3-Asp-Npg-B5-Asp-TfeGA-Aib-Ala-Phe-Lys*3-PyrS2-Phe-BztA-GlnR*3-Ala-NH2 [I-879] | < 50 nM |
| Ac-PL3-Asp-Npg-B5-Asp-TfeGA-Aib-Ala-Phe-Lys*3-PyrS2-Phe-BztA-GlnR*3-Leu-Ser-NH2 [I-880] | < 50 nM |
| Ac-PL3-Asp-Npg-B5-Asp-TfeGA-Aib-Ala-Phe-Lys*3-PyrS2-Phe-BztA-GlnR*3-NH2 [I-878] | < 50 nM |
| Ac-PL3-Asp-Npg-B5-Asp-TfeGA-Phe-Ala-Phe-Lys*3-PyrS2-Phe-BztA-GlnR*3-Leu-Ser-NH2 [I-902] | 50 to 200 nM |
| Ac-PL3-Asp-Npg-B5-Asp-[Ac]Dap-Aib-Ala-Phe-Lys*3-PyrS2-3Thi-BztA-GlnR*3-Ala-NH2 [I-1396] | < 50 nM |
| Ac-PL3-Asp-Npg-B5-Asp-[CH2CO2H]Acp-Aib-Ala-Phe-Lys*3-PyrS2-3Thi-BztA-GlnR*3-Ala-NH2 [I-1397] | 200 to 750 nM |
| Ac-PL3-Asp-Npg-B5-Asp-[Malonate]Dap-Aib-Ala-Phe-Lys*3-PyrS2-3Thi-BztA-GlnR*3-Ala-NH2 [I-1432] | < 50 nM |
| Ac-PL3-Asp-Npg-B5-Asp-[Me2Mal]Dap-Aib-Ala-Phe-Lys*3-PyrS2-3Thi-BztA-GlnR*3-Ala-NH2 [I-1433] | < 50 nM |

| Substance | IC50 |
| --- | --- |
| Ac-PL3-Asp-Npg-B5-Asp-[Pfbn]GA-Aib-Ala-Phe-Lys*3-PyrS2-3Thi-BztA-GlnR*3-Ala-NH2 [I-1398] | < 50 nM |
| Ac-PL3-Asp-Npg-B5-Asp-[RaiPrSuc]Dap-Aib-Ala-Phe-Lys*3-PyrS2-3Thi-BztA-GlnR*3-Ala-NH2 [I-1436] | < 50 nM |
| Ac-PL3-Asp-Npg-B5-Asp-[SaMeSuc]Dap-Aib-Ala-Phe-Lys*3-PyrS2-3Thi-BztA-GlnR*3-Ala-NH2 [I-1435] | < 50 nM |
| Ac-PL3-Asp-Npg-B5-Asp-[SaiPrSuc]Dap-Aib-Ala-Phe-Lys*3-PyrS2-3Thi-BztA-GlnR*3-Ala-NH2 [I-1434] | < 50 nM |
| Ac-PL3-Asp-Npg-B5-Asp-[Succinate]Dap-Aib-Ala-Phe-Lys*3-PyrS2-3Thi-BztA-GlnR*3-Ala-NH2 [I-1431] | < 50 nM |
| Ac-PL3-Asp-Npg-B5-Asp-[Tfb]GA-Aib-Ala-Phe-Lys*3-PyrS2-3Thi-BztA-GlnR*3-Ala-NH2 [I-1399] | < 50 nM |
| Ac-PL3-Asp-Npg-B5-Asp-bMe2Asp-Aib-Ala-Phe-Lys*3-PyrS2-Phe-34ClF-GlnR*3-NH2 [I-1061] | < 50 nM |
| Ac-PL3-Asp-Npg-B5-AspSH-3COOHF-Aib-Ala-Phe-Lys*3-PyrS2-3Thi-BztA-GlnR*3-Ala-NH2 [I-1302] | 200 to 750 nM |
| Ac-PL3-Asp-Npg-B5-Hse-TfeGA-Ala-Ala-Phe-Lys*3-PyrS2-2F3MeF-BztA-GlnR*3-Ala-NH2 [I-119] | > 1000 nM |
| Ac-PL3-Asp-R5-S5-Asp-3COOHF-Aib-Ala-Phe-PyrS2-Lys*3-3Thi-BztA-Ala-GlnR*3-NH2 [I-1484] | > 1000 nM |
| Ac-PL3-Asp-nLeu-B5-Asp-3COOHF-CyhLeu-Ala-Phe-Lys*3-PyrS2-3Thi-BztA-GlnR*3-Ala-NH2 [I-855] | < 50 nM |
| Ac-PL3-AspSH-Npg-B5-Asp-3COOHF-Aib-Ala-Phe-Lys*3-PyrS2-3Thi-BztA-GlnR*3-Ala-NH2 [I-1301] | 50 to 200 nM |
| Ac-PL3-AspSH-Npg-B5-AspSH-3COOHF-Aib-Ala-Phe-Lys*3-PyrS2-3Thi-BztA-GlnR*3-Ala-NH2 [I-1303] | > 1000 nM |
| Ac-PL3-BztA-Npg-B5-Asp-3COOHF-Aib-Ala-Phe-Lys*3-PyrS2-3Thi-BztA-GlnR*3-Ala-NH2 [I-1154] | > 1000 nM |
| Ac-PL3-Gln-Npg-B5-Asp-3COOHF-Aib-Ala-Phe-Lys*3-PyrS2-3Thi-BztA-GlnR*3-Ala-NH2 [I-929] | 200 to 750 nM |
| Ac-PL3-Gln-Npg-B5-Asp-3COOHF-Aib-Ala-Phe-Lys*3-PyrS2-3Thi-BztA-GlnR*3-Ala-NH2 [I-930] | 200 to 750 nM |
| Ac-PL3-Gln-Npg-B5-Asp-3COOHF-Aib-Ala-Phe-Lys*3-PyrS2-3Thi-BztA-GlnR*3-Ala-NH2 [I-968] | > 1000 nM |
| Ac-PL3-Glu-Npg-B5-Asp-3COOHF-Aib-Ala-Phe-Lys*3-PyrS2-3Thi-BztA-GlnR*3-Ala-NH2 [I-967] | 50 to 200 nM |
| Ac-PL3-Glu-Npg-B5-Glu-3COOHF-Aib-Ala-Phe-Lys*3-PyrS2-3Thi-34ClF-GlnR*3-NH2 [I-1024] | > 1000 nM |
| Ac-PL3-Hse-Npg-B5-Asp-TfeGA-Ala-Ala-Phe-Lys*3-PyrS2-2F3MeF-BztA-GlnR*3-Ala-NH2 [I-116] | > 1000 nM |
| Ac-PL3-NAsp-Npg-B5-Asp-3COOHF-Aib-Ala-Phe-Lys*3-PyrS2-3Thi-BztA-GlnR*3-Ala-NH2 [I-819] | 50 to 200 nM |
